From patent US7381540B2, “Composition for measuring glucose having improved substrate specificity” (Toyo Boseki Kabushiki Kaisha, priority 2005, dated 2008)

Tested on: modified PQQGDH
Test: Substrate specificity using glucose assay system (ferricyanide reduction, absorbance 420 nm)
Assay type: biochemical
Conditions: glutaric acid buffer pH 7.0, reagent 1%
Experimental: D-glucose+ferricyanide ion+PQQGDH D-glucono-1,5-lactone+ferrocyanide ion
Specificity to each substrate can be determined by changing D-glucose to other saccharides. The presence of the ferrocyanide ion produced by reduction of the ferricyanide ion was confirmed by measuring the decrease of absorbance at a wavelength of 420 nm by spectrophotometry.
A. […]
B. Potassium ferricyanide solution: 50 mM (0.165 g potassium ferricyanide (molecular weight: 329.25) dissolved in 10 ml of distilled water)
C. PQQGDH solution: 31000 U/ml (approx. 128 mg PQQGDH (Toyobo: GLD-331) dissolved in 5 ml of distilled water)
D. Substrate solution (D-glucose solution or maltose solution): 100 or 400 mM
• 1. […] The reduction in the absorbance relative to water at 420 nm was recorded for 1 to 3 minutes with a spectrophotometer while maintaining at a temperature of 37° C., and the ΔOD per minute was calculated from the initial linear portion of the curve (ΔOD test). […]
Variation in absorbance per unit time was determined by calculating ΔOD/min(ΔOD test−ΔOD blank)
To evaluate whether activity had declined with respect to sugars other than glucose, the ΔOD/min (a) with D-glucose as the substrate solution and the ΔOD/min (b) with the other sugar in place of D-glucose as the substrate solution were measured, and the relative value ((b)/(a)×100) was calculated given 100 as the measurement value with glucose as the substrate. […]

Q: `O=C(O)CCC(=O)C(=O)O.[Na]` [Sodium α-ketoglutaric acid] was tested. Which Maltose/glucose ratio (substrate 4.8 mM, control 0.86) did it give?
A: 0.64

Q: What about the Maltose/glucose ratio (substrate 19.2 mM, control 0.94) of the same molecule?
A: 0.90
